Reference: patent US10004748B2, “Methods of treating PR-positive, luminal A breast cancer with PI3K inhibitor, pictilisib” (Genentech, Inc., priority 2014, dated 2018)

System: advanced or metastatic ER+ breast cancer (MBC)
Details: for Hazard Ratio (PFS): GDC-0941 vs placebo, both on fulvestrant; for PFS hazard ratio (95% CI), stratified analysis: endocrine resistance

## CS(=O)(=O)N1CCN(Cc2cc3nc(-c4cccc5[nH]ncc45)nc(N4CCOCC4)c3s2)CC1 [GDC-0941, 4-(2-(1H-indazol-4-yl)-6-((4-(methylsulfonyl)piperazin-1-yl)methyl)thieno[3,2-d]pyrimidin-4-yl)morpholine]
All Patients (ITT), unstratified
  Hazard Ratio (PFS): 0.77
Baseline ECOG Score 0
  Hazard Ratio (PFS): 0.56
Baseline ECOG Score 1
  Hazard Ratio (PFS): 1.41
Bone Only Non-Measureable Disease at Baseline No
  Hazard Ratio (PFS): 0.94
Bone Only Non-Measureable Disease at Baseline Yes
  Hazard Ratio (PFS): 0.23
ITT, stratified by PIK3CA mut, measurable disease
  PFS hazard ratio (95% CI), stratified analysis: 0.73 (0.45, 1.16)
ITT, stratified by PIK3CA mut, measurable disease, age, ECOG, BOLERO resistance, bone-only, visceral disease, last therapy setting, metastatic chemo
  PFS hazard ratio (95% CI), stratified analysis: 0.59 (0.19, 1.87)
ITT, stratified by PIK3CA mutation, visceral disease
  PFS hazard ratio (95% CI), stratified analysis: 0.62 (0.39, 1)
ITT, stratified by PIK3CA mutation, visceral disease, PR status, Luminal A/B
  PFS hazard ratio (95% CI), stratified analysis: 0.55 (0.29, 1.05)
Luminal A, stratified by PIK3CA mut, measurable disease
  PFS hazard ratio (95% CI), stratified analysis: 0.56 (0.28, 1.13)
Luminal A, stratified by PIK3CA mut, measurable disease, age, ECOG, BOLERO resistance, bone-only, visceral disease, last therapy setting, metastatic chemo
  PFS hazard ratio (95% CI), stratified analysis: 0.41 (0.1, 1.64)
Luminal A, stratified by PIK3CA mutation, visceral disease
  PFS hazard ratio (95% CI), stratified analysis: 0.54 (0.27, 1.06)
Luminal A, stratified by PIK3CA mutation, visceral disease, PR status, Luminal A/B
  PFS hazard ratio (95% CI), stratified analysis: 0.45 (0.22, 0.93)
Measurable Disease at Baseline (Derived) No
  Hazard Ratio (PFS): 0.45
Measurable Disease at Baseline (Derived) Yes
  Hazard Ratio (PFS): 1.11
Num of Previous Therapies in Metastatic Setting 0
  Hazard Ratio (PFS): 0.46
Num of Previous Therapies in Metastatic Setting 1
  Hazard Ratio (PFS): 1.11
Num of Previous Therapies in Metastatic Setting 2
  Hazard Ratio (PFS): 0.88
Num of Previous Therapies in Metastatic Setting 3+
  Hazard Ratio (PFS): 0.55
PIK3CA Helical Domain Mutation Status Positive
  Hazard Ratio (PFS): 1.16
PIK3CA Helical Domain Mutation Status Unknown
  Hazard Ratio (PFS): 1.17
PIK3CA Helical Domain Mutation Status Wild Type
  Hazard Ratio (PFS): 0.64
PIK3CA Kinase Domain Mutation Status Positive
  Hazard Ratio (PFS): 0.68
PIK3CA Kinase Domain Mutation Status Unknown
  Hazard Ratio (PFS): 1.95
PIK3CA Kinase Domain Mutation Status Wild Type
  Hazard Ratio (PFS): 0.80
PIK3CA Mutation Status Positive
  Hazard Ratio (PFS): 0.92
PIK3CA Mutation Status Unknown
  Hazard Ratio (PFS): 1.31
PIK3CA Mutation Status Wild Type
  Hazard Ratio (PFS): 0.64
PR Status Negative
  Hazard Ratio (PFS): 1.40
PR Status Positive (n=116), unstratified
  Hazard Ratio (PFS): 0.45
PR Status Unknown
  Hazard Ratio (PFS): 7.21
PR-positive, stratified by PIK3CA mut, measurable disease
  PFS hazard ratio (95% CI), stratified analysis: 0.48 (0.26, 0.87)
PR-positive, stratified by PIK3CA mut, measurable disease, age, ECOG, BOLERO resistance, bone-only, visceral disease, last therapy setting, metastatic chemo
  PFS hazard ratio (95% CI), stratified analysis: 0.33 (0.06, 1.69)
PR-positive, stratified by PIK3CA mutation, visceral disease
  PFS hazard ratio (95% CI), stratified analysis: 0.38 (0.2, 0.72)
PR-positive, stratified by PIK3CA mutation, visceral disease, PR status, Luminal A/B
  PFS hazard ratio (95% CI), stratified analysis: 0.42 (0.2, 0.87)
Primary Resistance (Derived)
  Hazard Ratio (PFS): 0.71
Primary/Secondary Resistance Unknown
  Hazard Ratio (PFS): >999.99
Received Prior Adjuvant/Neo-Adjuvant Therapy No
  Hazard Ratio (PFS): 1.33
Received Prior Adjuvant/Neo-Adjuvant Therapy Yes
  Hazard Ratio (PFS): 0.66
Secondary Resistance (Derived)
  Hazard Ratio (PFS): 0.75
Visceral Disease No
  Hazard Ratio (PFS): 0.69
Visceral Disease Yes
  Hazard Ratio (PFS): 0.68

Where two headings read alike, the source gives them in different places.
